# Test results as given in patent publication US20250115678A1 (AstraZeneca / MedImmune, published 2025).
# T1: human LRRC15 recombinant extracellular domain protein (human, UniProt Q8TF66 22-538)
# T1 construct: extracellular domain; also called LRRC15 human
# T1 sequence (looked up): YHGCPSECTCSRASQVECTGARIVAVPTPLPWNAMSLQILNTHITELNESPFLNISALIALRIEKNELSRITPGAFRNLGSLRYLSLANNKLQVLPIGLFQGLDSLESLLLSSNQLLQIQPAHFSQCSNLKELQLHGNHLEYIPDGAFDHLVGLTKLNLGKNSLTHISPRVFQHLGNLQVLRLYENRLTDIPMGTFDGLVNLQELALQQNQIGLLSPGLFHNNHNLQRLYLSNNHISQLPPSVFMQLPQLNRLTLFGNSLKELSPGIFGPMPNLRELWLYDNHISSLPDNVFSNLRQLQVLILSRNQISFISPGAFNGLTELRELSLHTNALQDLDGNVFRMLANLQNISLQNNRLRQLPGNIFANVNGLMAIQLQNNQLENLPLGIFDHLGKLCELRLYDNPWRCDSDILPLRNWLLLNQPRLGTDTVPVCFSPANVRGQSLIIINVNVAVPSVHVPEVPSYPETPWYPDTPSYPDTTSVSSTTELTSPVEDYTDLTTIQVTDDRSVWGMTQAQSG
# Experiments:
# Assay in all cases: SPR single-cycle kinetics (Biacore 8K+), TCE captured on Protein G chip, LRRC15 ECD as analyte, 1:1 fit, average of 3 or 4 replicates
# [1] = molecular target: T1, human LRRC15 recombinant extracellular …
# Method: (§1) The affinities of the T-cell engagers to human, mouse and cyno LRRC15 recombinant proteins were measured by Surface Plasmon Resonance using a Single-Cycle Kinetics (SCK) method on a Biacore 8K+ system (CYTIVA).
# (§2) The T-cell engagers were captured on a PROTEIN G chip and exposed to a series of increasing concentrations of human, mouse or cyno LRRC15 recombinant extracellular domain proteins (Acro Biosystems PROTEIN G). The fully corrected binding data were globally fitted to a 1:1 binding model to determine the KD using the Biacore™ Insight Evaluation Software (CYTIVA). Coloured sensorgram trace represents the raw data and black line the global 1:1 fit to that data. Values for kinetics parameters is shown in Table 8 are averages for 3 or 4 replicate sets of measurements.
# [2] = molecular target: T2, mouse LRRC15 recombinant extracellular domain protein (mouse, UniProt Q80X72 22-536)
# T2 construct: extracellular domain; also called LRRC15 mouse
# Method: as §1, §2
# [3] = molecular target: T3, cyno LRRC15 recombinant extracellular domain protein (cyno, UniProt G7NYR2 22-538)
# T3 construct: extracellular domain; also called LRRC15 cyno
# Method: as §1, §2
binder,measurement,setting,value
"TPP-46960 (other, T-cell engager in the CD8/TCR format: 2x LRRC15 Fab, 1x TCR VHH, 1x CD8 VHH; Residue 55 of L-CDR2 is N) light: not shown heavy 1: EVQLVQSGAEVKKPGASVKVSCKASGYKFSSYWIEWVKQAPGQGLEWIGEILPGSDTTNYAQKFQDRVTFTSDTSISTAYMELSRLRSDDTAVYYCARDRGNYRAWFGYWGQGTLVTVSSASTKGPSVFPLAPSSKSTSGGTAALGCLVKDYFPEPVTVSWNSGALTSGVHTFPAVLQSSGLYSLSSVVTVPSSSLGTQTYICNVNHKPSNTKVDKRVEPKSCDKTGGSEVQLVESGGGLVQPGGSLRLSCVASGDVHKINFLGWYRQAPGKEREKVAHISIGDQTDYADSAKGRFTISRDESKNMVYLQMNSLKPEDTAVYFCRAFSRIYPYDYWGQGTLVTVSSGGGGSTHTCPPCPAPPVAGPSVFLFPPKPKDTLMISRTPEVTCVVVDVKHEDPEVKFNWYVDGVEVHNAKTKPREEQYNSTYRVVSVLTVLHQDWLNGKEYKCKVSNKALPAPIEKTISKAKGQPREPQVCTLPPSREEMTKNQVSLSCAVKGFYPSDIAVEWESNGQPENNYKTTPPVLDSDGSFFLVSKLTVDKSRWQQGNVFSCSVMHEALHNRFTQKSLSLSPGK heavy 2: EVQLVQSGAEVKKPGASVKVSCKASGYKFSSYWIEWVKQAPGQGLEWIGEILPGSDTTNYAQKFQDRVTFTSDTSISTAYMELSRLRSDDTAVYYCARDRGNYRAWFGYWGQGTLVTVSSASTKGPSVFPLAPSSKSTSGGTAALGCLVKDYFPEPVTVSWNSGALTSGVHTFPAVLQSSGLYSLSSVVTVPSSSLGTQTYICNVNHKPSNTKVDKRVEPKSCDKTGGSEVQLLESGGGLVQPGGSLRLSCAASGFTFTDYAIGWFRQAPGKEREGVSCIRVSDGSTYYADSVKGRFTISRDSSKNTLYLQMNSLRAEDTAVYYCAAGSLYTCVQSIVWPARPYYDMDYWGQGTLVTVSSGGGGSTHTCPPCPAPPVAGPSVFLFPPKPKDTLMISRTPEVTCVVVDVKHEDPEVKFNWYVDGVEVHNAKTKPREEQYNSTYRVVSVLTVLHQDWLNGKEYKCKVSNKALPAPIEKTISKAKGQPREPQVYTLPPCREEMTKNQVSLWCLVKGFYPSDIAVEWESNGQPENNYKTTPPVLDSDGSFFLYSKLTVDKSRWQQGNVFSCSVMHEALHNHYTQKSLSLSPGK",koff,[1],0.000291 s⁻¹
same,kon,[1],297000 M⁻¹ s⁻¹
same,Kd,[2],281 pM
same,koff,[2],5.64e-05 s⁻¹
same,kon,[2],200000 M⁻¹ s⁻¹
same,koff,[3],0.000379 s⁻¹
same,kon,[3],170000 M⁻¹ s⁻¹
